Source: US20020052313A1

Chains of the proteins cited; added tags and fusions are not shown. Residues count along the entry.
UniProt P04629, 33-796: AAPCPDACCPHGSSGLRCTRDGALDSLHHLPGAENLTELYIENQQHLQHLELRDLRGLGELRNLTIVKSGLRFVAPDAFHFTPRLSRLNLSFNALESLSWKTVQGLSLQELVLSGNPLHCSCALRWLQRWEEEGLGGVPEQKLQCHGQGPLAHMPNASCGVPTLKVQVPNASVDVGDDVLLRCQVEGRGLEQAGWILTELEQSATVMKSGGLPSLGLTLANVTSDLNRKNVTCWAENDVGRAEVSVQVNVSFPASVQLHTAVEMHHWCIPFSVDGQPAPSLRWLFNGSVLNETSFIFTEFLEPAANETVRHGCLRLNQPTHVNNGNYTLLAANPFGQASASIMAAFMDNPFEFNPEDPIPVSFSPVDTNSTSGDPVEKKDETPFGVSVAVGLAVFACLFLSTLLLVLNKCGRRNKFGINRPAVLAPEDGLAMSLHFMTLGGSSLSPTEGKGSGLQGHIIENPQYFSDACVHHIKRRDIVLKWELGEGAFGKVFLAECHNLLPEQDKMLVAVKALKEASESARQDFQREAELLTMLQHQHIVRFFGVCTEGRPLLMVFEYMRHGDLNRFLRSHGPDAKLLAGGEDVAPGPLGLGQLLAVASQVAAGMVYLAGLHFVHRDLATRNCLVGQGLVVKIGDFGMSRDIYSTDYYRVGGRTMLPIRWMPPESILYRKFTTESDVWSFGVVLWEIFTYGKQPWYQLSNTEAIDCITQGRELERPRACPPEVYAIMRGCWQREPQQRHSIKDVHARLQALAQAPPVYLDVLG

How the values were obtained:
[1] = molecular target: p140^trk-A (human, on B lymphocytes) (human) (UniProt P04629); test: equilibrium binding of 125I-NGF, Scatchard analysis, large (in vivo activated) human tonsil B cells, high-affinity class of sites
[2] = molecular target: p140^trk-A (human, on B lymphocytes) (human) (UniProt P04629); test: equilibrium binding of 125I-NGF, Scatchard analysis, small resting human B lymphocytes after acid (pH 3.0) treatment, high-affinity receptors

- Kd [1]: 30 pM
- binding sites/cell [1]: 30000 sites/cell
- Kd [2]: 170 pM
- binding sites/cell (binding sites/cell) [2]: 90000
Substance: ^125I-NGF (Nerve Growth Factor, radio-iodinated, Amersham) (ligand)
